Earlier results on two substances are cited in paper PMC1976947.

Amino acid sequences for entries named in this document (tags omitted). Residues count along the entry.
UniProt P14753, 25-507: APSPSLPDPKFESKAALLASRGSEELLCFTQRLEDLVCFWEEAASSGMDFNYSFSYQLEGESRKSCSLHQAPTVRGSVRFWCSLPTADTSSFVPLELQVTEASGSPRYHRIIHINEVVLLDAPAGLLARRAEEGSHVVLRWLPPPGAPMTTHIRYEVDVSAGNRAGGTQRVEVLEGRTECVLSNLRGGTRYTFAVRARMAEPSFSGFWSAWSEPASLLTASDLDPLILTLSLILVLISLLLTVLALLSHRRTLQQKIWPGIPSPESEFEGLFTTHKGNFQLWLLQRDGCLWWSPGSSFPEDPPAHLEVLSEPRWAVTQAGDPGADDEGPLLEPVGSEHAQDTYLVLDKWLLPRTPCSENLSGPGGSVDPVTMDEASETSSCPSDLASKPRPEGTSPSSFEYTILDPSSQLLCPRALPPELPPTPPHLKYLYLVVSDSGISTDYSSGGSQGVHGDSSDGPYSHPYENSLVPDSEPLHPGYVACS
UniProt P26952, 17-331: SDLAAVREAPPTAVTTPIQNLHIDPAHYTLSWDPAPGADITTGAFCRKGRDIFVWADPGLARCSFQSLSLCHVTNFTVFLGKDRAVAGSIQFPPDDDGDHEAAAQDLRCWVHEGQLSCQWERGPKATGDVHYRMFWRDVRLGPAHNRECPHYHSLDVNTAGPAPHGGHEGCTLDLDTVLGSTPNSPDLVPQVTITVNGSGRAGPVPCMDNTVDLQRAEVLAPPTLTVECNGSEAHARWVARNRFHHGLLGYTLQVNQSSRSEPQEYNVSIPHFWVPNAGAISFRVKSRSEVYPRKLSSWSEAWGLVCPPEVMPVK
UniProt P01586, 27-166: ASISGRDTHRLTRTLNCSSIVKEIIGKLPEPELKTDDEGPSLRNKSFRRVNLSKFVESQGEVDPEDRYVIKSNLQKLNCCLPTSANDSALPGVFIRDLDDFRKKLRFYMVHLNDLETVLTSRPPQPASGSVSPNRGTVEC

What is called Kd is the free concentration of one partner at which half of the binding sites on the other are occupied at equilibrium, for simple one-to-one binding.

Data set [1] deals with erythropoietin receptor (Mus musculus) (UniProt P14753).
Data set [2] concerns the target IL-3 receptor (Mus musculus) (UniProt P26952).

As to erythropoietin (from UniProt P01588), the Kd in data set [1] was 5 nM.

Regarding Interleukin 3 (from UniProt P01586), in data set [2], the Kd was 0.017 nM.
